## Apparent affinities of Ab-14 variants for a coronavirus HR2 peptide

Values reported by Li et al. 2023, doi:10.1038/s41467-023-39022-2 (FLAb copy).

Target peptide (SARS-CoV-2 spike, HR2 region): PDVDLGDISGINAS

The variants keep the heavy chain, the linker and the frameworks of Ab-14 (scFv order VH, the linker GGGGSGGGGSGGGGS, VL).
VH: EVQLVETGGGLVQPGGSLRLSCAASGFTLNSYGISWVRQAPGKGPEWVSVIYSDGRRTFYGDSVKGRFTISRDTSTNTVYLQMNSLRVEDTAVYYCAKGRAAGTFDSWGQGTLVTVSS
VL: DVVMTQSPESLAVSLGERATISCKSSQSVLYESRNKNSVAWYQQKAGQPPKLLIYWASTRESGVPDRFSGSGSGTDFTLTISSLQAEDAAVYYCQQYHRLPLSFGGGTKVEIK

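Phage display of a naive human antibody library on the peptide gave the parent. The variants were designed computationally from a first round of random CDR variants and then made and measured. Several design methods are mixed in this list. Affinity was read by AlphaSeq, a pooled yeast mating assay with surface-displayed partners. Mating (16 h, 30 °C) was followed by selection of diploids and sequencing of their barcodes. The ratio of observed to expected reads was calibrated, replicate by replicate, on BCL2-family standards whose Kd was known from biolayer interferometry. Mating was done six times.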

The parent's light chain CDRs are KSSQSVLYESRNKNSVA, WASTRES, QQYHRLPLS; each variant's own CDRs replace them letter for letter.
Variants here have more than six changes.
Values are apparent Kd, the geometric mean of the replicates that gave a signal; lower means stronger binding.
Where no diploid with the target was found in any replicate, the entry reads "nd": below detection, most likely a poor binder, though not proof of it.
Values of this round are not directly comparable with the first-round values of the same sequences.
Of ten entries with the parent sequence, four were seen in most replicates (averages 2.2 nM to 240 nM), three in one and three in none, so single entries are noisy.
Empty control strains, which show no peptide, gave a signal in 4% of pairings with all light chain designs; the median was 430 nM and 95% of these signals were weaker than 38 nM. No background was subtracted.
The authors' rule: three or more of the six replicates give a measured affinity, fewer mean a poor binder.

- MISQLYNMGSFAINSVA / QASERNA / QQYDRLPLI -> 11 nM (6 of 6 replicates)
- KLQNQYEYESRMKNSVA / NASTRLE / QQYHRLPLS -> 960 pM (6 of 6 replicates)
- KLMEQFGHQMDHKNSIA / HVDMLAQ / QQYMHLPLI -> 5.7 nM (6 of 6 replicates)
- QVSEFMMGLMSRKDSIA / DNNTRGS / QQYDRLPLS -> 680 nM (6 of 6 replicates)
- KVSEFMRGLMNRKDSIA / DNVTRSN / QQYDRLPLS -> 360 nM (2 of 6 replicates)
- KIQNFSQEYNKMWNNIA / DMTMKHT / QQYNRLPLV -> 820 pM (6 of 6 replicates)
- KIYQNMGETQRNKNSVA / EVSTVPS / QQYWRLPLS -> 4.8 nM (6 of 6 replicates)
- RVQMGDQPGKTARNNIA / DGEEGYR / QQYARLPLT -> 4.5 nM (6 of 6 replicates)
- KLSMMLHVTGVNKNNVA / ELTMRGN / QQYHRLPLM -> nd (0 of 6 replicates)
- MMSQVTGLGQRHRNNVA / QTSTRME / QQYDRLPLI -> 3.5 nM (6 of 6 replicates)
- KQQQSDEGEQRNKNSVA / EASTRCM / QQYHRLPLS -> 1.7 nM (6 of 6 replicates)
- KIGMTLNTLMQKKNNVA / DLVEREN / QQYFRLPLS -> 2.0 nM (6 of 6 replicates)
- KLMNSLDAFKQWEDNVA / EVEHKVA / QQYQHLPLT -> 140 nM (1 of 6 replicates)
- KLVQQNLYESRNKNNVA / EASTREQ / QQYHRLPLS -> 1.0 nM (6 of 6 replicates)
- KVSWEDLLWSRNWNQVA / EASTRES / QQYHRLPLS -> 11 nM (6 of 6 replicates)
- KISMTYRYESQASNSIA / EMTTRAE / QSYHRLPLS -> 7.8 nM (6 of 6 replicates)
- TIGQSQHETSRNKNSVA / HASTRED / QQYDRLPLS -> 2.9 nM (6 of 6 replicates)
- KIEQSMLYEDRNKNSVA / NASQREV / QAYHRLPLS -> 2.9 nM (6 of 6 replicates)
- KVMQSVLGLQRAKNSVA / EASTRES / QQYHRLPLS -> 1.4 nM (6 of 6 replicates)
- TISQMTSLFSQTINNVA / EVSTREE / QQYDRLPLV -> 2.3 nM (6 of 6 replicates)
- MLSEVLHMLGAKKNSIA / DLVLRAN / QQYHRLPLS -> 150 nM (5 of 6 replicates)
- ILSQMLLTAGNKHSSVA / QANYRES / QQYHRLPLS -> 260 nM (5 of 6 replicates)
- KMNERYEMGENQQKSIA / NGAHLVH / QDYHRLPLG -> 1.4 nM (6 of 6 replicates)
- KLSQGTYGLTQIDSNVA / HDEMRWA / QQYDKLPLI -> 220 nM (1 of 6 replicates)
- KLSQSWWMESRNKNNVA / HASKRES / QQYHRLPLS -> 4.2 nM (6 of 6 replicates)
- KMAQGNPYESRNKNSVA / NASYREM / QQYHRLPLS -> 380 pM (6 of 6 replicates)
- MINMEIGIEDMKWQAVA / SAHVRAF / QQYGRLPFS -> 12 nM (4 of 6 replicates)
- MITAVMYAENESWSSIA / DKEISVN / QQYDRLPLD -> 340 nM (2 of 6 replicates)
- ASDHTEGSGKNADANVA / GDEQRAY / QQYHHLPLS -> 8.7 nM (6 of 6 replicates)
- KLQQSEGYESRNQNSVA / AASQREE / QQYHRLPLS -> 910 pM (6 of 6 replicates)